Measured values as given in ChEMBL document CHEMBL1132914, “4-[(8-Alkyl-8-azabicyclo[3.2.1]octyl-3-yl)-3-arylanilino]-N,N-diethylbenzamides: high affinity, selective ligands for the delta opioid receptor illustrate factors important to antagonist activity” (Bioorg Med Chem Lett, 2000).

Chains of the proteins cited; added tags and fusions are not shown.
UniProt P41144, whole entry: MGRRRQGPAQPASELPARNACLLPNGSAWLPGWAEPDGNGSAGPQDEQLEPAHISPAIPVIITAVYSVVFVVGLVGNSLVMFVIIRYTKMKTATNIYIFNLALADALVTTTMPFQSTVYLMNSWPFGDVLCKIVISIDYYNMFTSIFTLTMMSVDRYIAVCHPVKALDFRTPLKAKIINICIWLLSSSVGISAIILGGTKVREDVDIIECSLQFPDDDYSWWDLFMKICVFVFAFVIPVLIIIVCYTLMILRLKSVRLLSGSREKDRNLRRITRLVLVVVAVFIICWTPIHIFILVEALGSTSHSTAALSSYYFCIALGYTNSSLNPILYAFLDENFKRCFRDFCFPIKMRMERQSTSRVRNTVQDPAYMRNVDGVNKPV
UniProt P33533, whole entry: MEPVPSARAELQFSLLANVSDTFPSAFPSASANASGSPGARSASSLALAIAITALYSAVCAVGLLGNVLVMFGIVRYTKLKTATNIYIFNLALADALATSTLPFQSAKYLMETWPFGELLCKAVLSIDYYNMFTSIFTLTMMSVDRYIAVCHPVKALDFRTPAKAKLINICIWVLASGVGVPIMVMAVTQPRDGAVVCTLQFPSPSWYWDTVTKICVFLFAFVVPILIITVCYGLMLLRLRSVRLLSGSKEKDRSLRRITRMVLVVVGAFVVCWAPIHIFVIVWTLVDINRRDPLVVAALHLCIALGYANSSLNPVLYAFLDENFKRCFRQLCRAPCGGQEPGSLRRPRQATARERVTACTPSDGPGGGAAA
UniProt P33535, whole entry: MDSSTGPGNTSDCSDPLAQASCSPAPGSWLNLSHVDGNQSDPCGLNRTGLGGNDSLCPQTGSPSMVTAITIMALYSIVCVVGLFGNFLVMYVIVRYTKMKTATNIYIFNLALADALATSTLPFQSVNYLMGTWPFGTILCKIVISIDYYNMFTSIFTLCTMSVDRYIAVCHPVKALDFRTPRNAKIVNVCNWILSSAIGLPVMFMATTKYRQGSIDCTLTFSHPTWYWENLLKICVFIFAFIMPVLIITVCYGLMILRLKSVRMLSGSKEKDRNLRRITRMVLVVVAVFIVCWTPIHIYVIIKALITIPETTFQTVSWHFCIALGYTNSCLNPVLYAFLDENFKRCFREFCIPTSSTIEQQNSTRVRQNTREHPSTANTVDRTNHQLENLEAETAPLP

Key:
[1] = target: Kappa-type opioid receptor (Cavia porcellus, UniProt P41144); assay: Compound was evaluated for binding affinity towards Opioid receptor kappa 1 by displacement of [3H]U-69593 radioligand
[2] = target: Delta-type opioid receptor (Rattus norvegicus, UniProt P33533); assay: Compound was evaluated for binding affinity towards Opioid receptor delta 1 by displacement of [3H]-DADLE radioligand
Mu-type opioid receptor = Mu-type opioid receptor (Rattus norvegicus, UniProt P33535); assay: Compound was evaluated for binding affinity towards Opioid receptor mu 1 by displacement of [3H]-DAMGO radioligand

SMILES	pKi [1]	pKi [2]	pKi (Mu-type opioid receptor)
CCN(CC)C(=O)c1ccc(N(c2cccc(OC)c2)[C@H]2C[C@H]3CC[C@@H](C2)N3CC=C(C)C)cc1	6.10	8.45	5.96
C=CCN1[C@@H]2CC[C@H]1C[C@@H](N(c1ccc(C(=O)N(CC)CC)cc1)c1cccc(O)c1)C2	7.14	8.90	6.16
C/C=C\CN1C2CCC1CC(N(c1ccc(C(=O)N(CC)CC)cc1)c1cccc(OC)c1)C2 (centres undefined)	5.93	8.43	< 5.47
C=CCN1CC[C@@H](N(c2ccccc2)c2ccc(C(=O)N(CC)CC)cc2)[C@@H](C)C1	5.84	8.23	–
C=CCN1[C@@H]2CC[C@H]1C[C@@H](N(c1ccc(C(=O)N(CC)CC)cc1)c1cccc(OC)c1)C2	5.97	8.48	5.59

pKi: −log10 of the molar value.
